Read-outs that look alike come from different tables or passages of the source.
Key:
[1] = target: T1, ferroportin (Homo sapiens, UniProt Q9NP59); experiment: FPN activity assay: internalization of ferroportin-GFP in stably transfected HEK293 cells; format: cell-based; parameters: expressed in transfected cells; conditions: read-out: IC50: FPN
T1 sequence (Q9NP59 1-571): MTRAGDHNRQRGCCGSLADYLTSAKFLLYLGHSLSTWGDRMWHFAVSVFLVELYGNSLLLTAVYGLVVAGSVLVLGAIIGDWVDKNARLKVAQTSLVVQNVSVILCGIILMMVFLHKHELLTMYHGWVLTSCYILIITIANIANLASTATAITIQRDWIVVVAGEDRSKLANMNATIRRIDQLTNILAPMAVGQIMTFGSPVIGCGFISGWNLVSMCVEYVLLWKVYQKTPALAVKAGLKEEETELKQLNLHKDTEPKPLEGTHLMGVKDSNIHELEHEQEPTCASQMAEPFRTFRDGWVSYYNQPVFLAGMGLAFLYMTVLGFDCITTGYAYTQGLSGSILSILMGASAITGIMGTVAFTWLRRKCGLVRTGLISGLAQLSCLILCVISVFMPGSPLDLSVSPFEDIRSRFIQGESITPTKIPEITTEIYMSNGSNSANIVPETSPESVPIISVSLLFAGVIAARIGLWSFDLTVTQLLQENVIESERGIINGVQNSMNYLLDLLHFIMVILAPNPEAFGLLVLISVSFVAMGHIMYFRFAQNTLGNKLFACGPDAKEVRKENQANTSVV
Description: Peptide analogues were tested in vitro for induction of internalization of the human ferroportin protein. Following internalization, the ferroporin protein is degraded. The assay used (FPN activity assay) measures a decrease in fluorescence of the receptor. The cDNA encoding the human ferroportin (SLC40A1) was cloned from a cDNA clone from Origene (NM_014585). The DNA encoding the ferroportin was amplified by PCR using primers also encoding terminal restriction sites for subcloning, but without the termination codon. The ferroportin receptor was subcloned into a mammalian GFP expression vector containing a neomycin (G418) resistance marker in such that the reading frame of the ferroportin was fused in frame with the GFP protein. The fidelity of the DNA encoding the protein was confirmed by DNA sequencing. HEK293 cells were used for transfection of the ferroportin-GFP receptor expression plasmid. The cells were grown according to standard protocol in growth medium and transfected with the plasmids using Lipofectamine (manufacturer's protocol, Invitrogen). The cells stably expressing ferroportin-GFP were selected using G418 in the growth medium (in that only cells that have taken up and incorporated the cDNA expression plasmid survive) and sorted several times on a Cytomation MoFloTM cell sorter to obtain the GFP-positive cells (488 nm/530 nm). The cells were propagated and frozen in aliquots. […] Compound was added to desired final concentration for at least 18 hours in the incubator. Following incubation, the remaining GFP-fluorescence was determined either by whole cell GFP fluorescence (Envision plate reader, 485/535 filter pair), or by Beckman Coulter QuantaTM flow cytometer (express as Geometric mean of fluorescence intensity at 485 nm/525 nm). Compound was added to desired final concentration for at least 18 hours but no more than 24 hours in the incubator. In certain experiments, reference compounds included native Hepcidin, Mini-Hepcidin, and RT-Mini-Hepcidin, which is an analog of mini-hepcidin. The “RI” in RI-Mini-Hepcidin refers to Retro Inverse. A retro inverse peptide is a peptide with a reversed sequence in all D amino acids. An example is that […] becomes […]. The EC50 of these reference compounds for ferroportin internalization/degradation was determined according to the FPN activity assay described above. These peptides served as control standards.

[2] = target: T1, ferroportin; experiment: T47D cell-based ferroportin internalization assay in presence of 0.5% mouse serum albumin (MSA); parameters: a human breast carcinoma adherent cell line which endogenously expresses ferroportin; host or cells: T47D
Description: The potency of the peptides in causing ferroportin internalization was evaluated in a T47D cell-based assay. […] In this internalization assay, the potency of the test peptides was evaluated in the presence of serum albumin, which is the main protein component in the blood. T47D cells were maintained in RPMI media (containing required amount of fetal bovine serum) and regularly sub-cultured. In preparation for the assay, the cells were seeded in 96-well plates at a density of 80-100 k cells per well in 100 ul volume and allowed to rest overnight. On the next day, test peptides were first prepared in dilution series (10-point series, starting concentration of ˜5 μM, typically 3-4×fold dilution steps), all with 0.5% mouse serum albumin (MSA purified from mouse serum; Sigma, A3139). The test peptide dilution series were allowed to incubate at room temperature for 30 min. Then the media was aspirated from the 96-well cell plate and test peptide dilution series were added. After 1 hr incubation, the media with test peptides was aspirated out and AF647-conjugated detection peptide was added at fixed concentration of 200 nM. The AF647-conjugated detection peptide was previously verified to bind to ferroportin and cause its internalization. The cells were washed again after a 2 hr incubation in preparation for flow cytometry analysis. The Median Fluorescence Intensity (MFI) of the AF647-positive population was measured (after removing dead cells and non-singlets from the analysis). The MFI values were used to generate a dose-response curve and obtain IC50 potencies for the test peptides. The IC50 potencies were calculated by using 4-parameter non-linear fitting function in Graphpad Prism, and the results are provided in Table 1C.

[3] = Table 1D, FPN internalization assay
[4] = Table 1D, T47D internalization, 0.5% mouse serum albumin, read-out: IC50: T47D MSA
[5] = Table 1C, FPN internalization assay
[6] = Table 1C, T47D internalization, 0.5% mouse serum albumin, read-out: IC50: T47D MSA

CCCCCCCCCCCCCCCC(=O)N[C@@H](CCC(=O)NCC[N+](C)(C)CC(=O)NC[C@@H]1NC(=O)[C@H]([C@@H](C)CC)NC(=O)[C@@H](NC(=O)[C@@H]2CCCN2C(=O)[C@@H](NC(=O)[C@H](Cc2c[nH]cn2)NC(=O)[C@@H](NC(=O)[C@H](CCC(=O)O)NC(=O)CC(C)C)[C@@H](C)O)C(c2ccccc2)c2ccccc2)CSSC[C@@H](C(N)=O)NC(=O)[C@@H](CCCCN)NC(=O)C[C@H](Cc2ccccc2)NC1=O)C(=O)O [compound 86]
DC50 [1, 3]: 1 to 30 nM
IC50 [2, 4]: 1 to 10 nM

CC[C@H](C)[C@@H]1NC(=O)[C@@H](NC(=O)[C@@H]2CCCN2C(=O)[C@@H](NC(=O)[C@H](Cc2c[nH]cn2)NC(=O)[C@@H](NC(=O)[C@H](CCC(=O)O)NC(=O)CC(C)C)[C@@H](C)O)C(c2ccccc2)c2ccccc2)CSSC[C@@H](C(N)=O)NC(=O)[C@@H](CCCCN)NC(=O)[C@H](C(c2ccccc2)c2ccccc2)NC(=O)[C@H](CCCCNC(=O)CCCc2ccc(I)cc2)NC1=O [compound 84]
DC50 [1, 3]: 30 to 100 nM
IC50 [2, 4]: 1 to 10 nM

CC[C@H](C)[C@@H]1NC(=O)[C@@H]2CSCc3cc(cc(c3)CSC[C@H](NC(=O)[C@H](CCC(=O)O)NC(=O)CC(C)C)C(=O)N[C@@H](Cc3c[nH]cn3)C(=O)N[C@@H](C(c3ccccc3)c3ccccc3)C(=O)N3CCC[C@H]3C(=O)N2)CSC[C@@H](C(N)=O)NC(=O)[C@@H](CCCCN)NC(=O)[C@H](CCCCNC(=O)CCCc2ccc(I)cc2)N(C)C(=O)[C@@H](CCCCN)NC1=O [compound 80]
DC50 [1]: > 500 nM
IC50 [2]: > 500 nM

CC[C@H](C)[C@@H]1NC(=O)[C@@H](NC(=O)[C@@H]2CCCN2C(=O)[C@@H](NC(=O)[C@H](Cc2c[nH]cn2)NC(=O)[C@@H](NC(=O)[C@H](CCC(=O)O)NC(=O)CC(C)C)[C@@H](C)O)C(c2ccccc2)c2ccccc2)CSSC[C@@H](C(N)=O)NC(=O)[C@H](CCCN2CCOCC2)NC(=O)C[C@H](Cc2ccccc2)NC(=O)[C@H](CCCCNC(=O)COCCOCCNC(=O)COCCOCCNC(=O)CCCCCNC(=O)CCCCCCCCCCCCCCCCC(=O)O)NC1=O [compound 71]
DC50 [1, 5]: 1 to 30 nM
IC50 [2, 6]: 11 to 100 nM

CC[C@H](C)[C@@H]1NC(=O)[C@@H](NC(=O)[C@@H]2CCCN2C(=O)[C@@H](NC(=O)[C@H](Cc2c[nH]cn2)NC(=O)[C@@H](NC(=O)[C@H](CCC(=O)O)NC(=O)c2ccccc2)[C@@H](C)O)C(c2ccccc2)c2ccccc2)CSSC[C@@H](C(N)=O)NC(=O)[C@@H](CCCCNC(=O)CCOCCOCCOCCOCCOCCOCCOCCOCCOCCOCCOCCOC)NC(=O)C[C@H](Cc2ccccc2)NC(=O)[C@H](CCCCNC(=O)COCCOCCNC(=O)COCCOCCNC(=O)CCCCCNC(=O)CCCCCCCCCCCCCCCCC(=O)O)NC1=O [compound 50]
DC50 [1]: 1 to 30 nM
IC50 [2]: 11 to 100 nM

CC[C@H](C)[C@@H]1NC(=O)[C@@H](NC(=O)[C@@H]2CCCN2C(=O)[C@@H](NC(=O)[C@H](Cc2c[nH]cn2)NC(=O)[C@@H](NC(=O)[C@H](CCC(=O)O)NC(=O)CC(C)C)[C@@H](C)O)C(c2ccccc2)c2ccccc2)CSSC[C@@H](C(N)=O)NC(=O)[C@@H](CCCCNC(=O)CCC(=O)N[C@H](CC(=O)[O-])C[N+](C)(C)C)NC(=O)C[C@H](Cc2ccccc2)NC(=O)[C@H](CCCCNC(=O)COCCOCCNC(=O)COCCOCCNC(=O)[C@H](CN)NC(=O)CCCCCCCCCCCCCCCCC(=O)O)NC1=O [compound 53]
DC50 [1, 5]: 1 to 30 nM
IC50 [2, 6]: 11 to 100 nM

CC[C@H](C)[C@@H]1NC(=O)[C@@H](NC(=O)[C@@H]2CCCN2C(=O)[C@@H](NC(=O)[C@H](Cc2c[nH]cn2)NC(=O)[C@H](CCO)NC(=O)[C@H](CCC(=O)O)NC(=O)CC(C)C)C(c2ccccc2)c2ccccc2)CSSC[C@@H](C(N)=O)NC(=O)[C@@H](CCCCNC(=O)CCOCCOCCOCCOCCOCCOCCOCCOCCOCCOCCOCCOC)NC(=O)C[C@H](Cc2ccccc2)NC(=O)[C@H](CCCCNC(=O)COCCOCCNC(=O)COCCOCCNC(=O)CCCCCNC(=O)CCCCCCCCCCCCCCCCC(=O)O)NC1=O [compound 69]
IC50 [2, 6]: > 500 nM

CC[C@H](C)[C@@H]1NC(=O)[C@@H](NC(=O)[C@@H]2CCCN2C(=O)[C@@H](NC(=O)[C@H](Cc2cn(C)cn2)NC(=O)[C@@H](NC(=O)[C@H](CCC(=O)O)NC(=O)CC(C)C)[C@@H](C)O)C(c2ccccc2)c2ccccc2)CSSC[C@@H](C(N)=O)NC(=O)[C@@H](CCCCNC(=O)CCOCCOCCOCCOCCOCCOCCOCCOCCOCCOCCOCCOC)NC(=O)C[C@H](Cc2ccccc2)NC(=O)[C@H](CCCCNC(=O)COCCOCCNC(=O)COCCOCCNC(=O)CCCCCNC(=O)CCCCCCCCCCCCCCCCC(=O)O)NC1=O [compound 67]
IC50 [2, 6]: 11 to 100 nM

CC[C@H](C)[C@@H]1NC(=O)[C@@H](NC(=O)[C@@H]2CCCN2C(=O)[C@@H](NC(=O)[C@H](Cc2c[nH]cn2)NC(=O)[C@@H](NC(=O)[C@H](CCC(=O)OC)NC(=O)CC(C)C)[C@@H](C)O)C(c2ccccc2)c2ccccc2)CSSC[C@@H](C(N)=O)NC(=O)[C@@H](CCCCN)NC(=O)[C@H](Cc2ccc(-c3nnn[nH]3)cc2)NC(=O)[C@H](CCCCNC(=O)COCCOCCNC(=O)COCCOCCNC(=O)[C@H](CN)NC(=O)CCCCCCCCCCCCCCCCC(=O)O)NC1=O [compound 64]
IC50 [2, 6]: 11 to 100 nM

CC[C@H](C)[C@@H]1NC(=O)[C@@H](NC(=O)[C@@H]2CCCN2C(=O)[C@@H](NC(=O)[C@H](Cc2c[nH]cn2)NC(=O)[C@@H]2[C@H](O)CCN2C(=O)[C@H](CCC(=O)OC)NC(=O)CC(C)C)C(c2ccccc2)c2ccccc2)CSSC[C@@H](C(N)=O)NC(=O)[C@@H](CCCCN)NC(=O)C[C@H](Cc2ccccc2)NC(=O)[C@H](CCCCNC(=O)COCCOCCNC(=O)COCCOCCNC(=O)CCCCCNC(=O)CCCCCCCCCCCCCCCCC(=O)O)NC1=O [compound 65]
IC50 [2, 6]: 11 to 100 nM

CC[C@H](C)[C@@H]1NC(=O)[C@@H](NC(=O)[C@@H]2CCCN2C(=O)[C@@H](NC(=O)[C@H](Cc2c[nH]cn2)NC(=O)[C@@H]2[C@H](O)CCN2C(=O)[C@H](CCC(=O)OC)NC(=O)CC(C)C)C(c2ccccc2)c2ccccc2)CSSC[C@@H](C(N)=O)NC(=O)[C@@H](CCCCN)NC(=O)C[C@H](Cc2ccccc2)NC(=O)[C@H](CCCCNC(=O)COCCOCCNC(=O)COCCOCCNC(=O)[C@H](CN)NC(=O)CCCCCCCCCCCCCCCCC(=O)O)NC1=O [compound 66]
IC50 [2, 6]: 11 to 100 nM

CC[C@H](C)[C@@H]1NC(=O)[C@@H](NC(=O)[C@@H]2CCCN2C(=O)[C@@H](NC(=O)[C@H](Cc2c[nH]cn2)NC(=O)[C@@H]2[C@H](O)CCN2C(=O)[C@H](CCC(=O)O)NC(=O)CC(C)C)C(c2ccccc2)c2ccccc2)CSSC[C@@H](C(N)=O)NC(=O)[C@@H](CCCCNC(=O)CCOCCOCCOCCOCCOCCOCCOCCOCCOCCOCCOCCOC)NC(=O)C[C@H](Cc2ccccc2)NC(=O)[C@H](CCCCNC(=O)COCCOCCNC(=O)COCCOCCNC(=O)CCCCCNC(=O)CCCCCCCCCCCCCCCCC(=O)O)NC1=O [compound 70]
IC50 [2, 6]: 101 to 500 nM
